{
  "source": "patent US12692461B2",
  "about": "“Composite form of tetraacetylenediamine” (ONE1STAR SOLUTIONS LIMITED, priority 2020, dated 2026)",
  "experiment": "Example 3: performance and water miscibility in presence of sodium percarbonate, weight of remaining material",
  "data": [
    {"smiles": "CC(=O)N(CCN(C(C)=O)C(C)=O)C(C)=O", "note": "[TAED (Commercially available), Tetraacetylethylenediamine]", "values": [
      {"measurement": "weight of the remaining material after 5 min", "setting": "1 gram TAED, 2.5 gram sodium percarbonate, 1 litre water, 500 rpm, 20° C.", "value": "600 ± 10 mg (unclear turbid solution)"},
      {"measurement": "weight of the remaining material after 5 min", "setting": "5 gram TAED in 1 litre water, sodium percarbonate", "value": "4100 ± 10 mg (unclear"}
    ]}
  ]
}
